The source of these data is US7906156B2, “CB2 receptors blocks accumulation of human hepatic myofibroblasts: a novel antifibrogenic pathway in the liver” (priority 2003, dated 2011).

The test system of the series is human hepatic myofibroblasts. Kind of series: Cell viability (MTS assay) / cytotoxicity of serum-deprived hepatic myofibroblasts. The class given is cell-based. Particulars: pretreatment before THC. How it is done:
Cell viability. […] CellTiter 96 AQueous One Solution reagent was added to each well and absorbance was recorded at 490 nm.
For orientation: Tetrazolium assays rely on reduction of a dye to a coloured formazan, in cell work by metabolically active cells.

Regarding “N-[1S)-endo-1,3,3,-trimethyl bicyclo[2.2.1]heptan-2-yl]-5-(choloro-3-methylphenyl)-1-(4-methyl-benzyl)-pyrazole-3-carboxamide [SR 144528]”, the “effect on cytotoxic effect / cell death triggered by THC” value is “blunted”.
